Data reported in PubChem BioAssay (NCI).
Some tests of the compounds listed are not included; inactive here does not mean inactive elsewhere.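 Compound exposure: 48 hours, 5 concentrations, 96-well plates. GI50: concentration for 50% inhibition of growth. TGI: concentration producing complete growth inhibition.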

How the values were obtained:
Assay in all cases: inhibition of tumour cell growth, NCI panel, 48 h
[1] = system: NCI-H522 lung
[2] = system: HT29 colon
[3] = system: OVCAR-4 ovarian
[4] = system: SN12C renal
[5] = system: EKVX NSCLC
[6] = system: MOLT-4 leukemia
[7] = system: HCC-2998 colon
[8] = system: RPMI-8226 leukemia
[9] = system: M14 melanoma
[10] = system: UACC-257 melanoma
[11] = system: MALME-3M melanoma
[12] = system: SK-MEL-2 melanoma
[13] = system: NCI/ADR-RES ovarian
[14] = system: COLO 205 colon
[15] = system: CAKI-1 renal
[16] = system: SF-539 CNS
[17] = system: OVCAR-8 ovarian
[18] = system: MDA-MB-231 breast
[19] = system: SNB-19 CNS
[20] = system: NCI-H322M lung
[21] = system: SNB-75 CNS
[22] = system: HOP-92 NSCLC
[23] = system: HOP-62 NSCLC
[24] = system: NCI-H226 lung
[25] = system: RXF 393 renal
[26] = system: SF-268 CNS
[27] = system: SF-295 CNS
[28] = system: ACHN renal
[29] = system: MDA-MB-435
[30] = system: DU-145 prostate
[31] = system: KM12 colon
[32] = system: K-562 leukemia
[33] = system: HS 578T breast
[34] = system: NCI-H460 lung
[35] = system: SR leukemia
[36] = system: LOX IMVI melanoma
[37] = system: CCRF-CEM leukemia
[38] = system: NCI-H23 lung
[39] = system: HL-60(TB) leukemia
[40] = system: U251 CNS
[41] = system: SW-620 colon
[42] = system: SK-MEL-28 melanoma
[43] = system: IGROV1 ovarian
[44] = system: OVCAR-3 ovarian
[45] = system: HCT-116 colon
[46] = system: 786-0 renal
[47] = system: HCT-15 colon
[48] = system: A498 renal
[49] = system: OVCAR-5 ovarian
[50] = system: MDA-N
[51] = system: MCF7 breast
[52] = system: PC-3 prostate
[53] = system: UACC-62 melanoma
[54] = system: A549 NSCLC
[55] = system: T-47D breast
[56] = system: TK-10 renal
[57] = system: SK-MEL-5 melanoma
[58] = system: UO-31 renal
[59] = system: BT-549 breast
[60] = system: SK-OV-3 ovarian

## CC/C=C\C(O)(C(=O)OC1CCN(C)CC1)C1CCCC1 (stereo unspecified)
[1]
  GI50: > 100 µM
  TGI: > 100 µM
[2]
  GI50: > 100 µM
  TGI: > 100 µM
[3]
  GI50: > 100 µM
  TGI: > 100 µM
[4]
  GI50: > 100 µM
  TGI: > 100 µM
[5]
  GI50: > 100 µM
  TGI: > 100 µM
[6]
  GI50: > 100 µM
  TGI: > 100 µM
[7]
  GI50: > 100 µM
  TGI: > 100 µM
[8]
  GI50: > 100 µM
  TGI: > 100 µM
[9]
  GI50: > 100 µM
  TGI: > 100 µM
[10]
  GI50: > 100 µM
  TGI: > 100 µM
[11]
  GI50: > 100 µM
  TGI: > 100 µM
[12]
  GI50: > 100 µM
  TGI: > 100 µM
[13]
  GI50: > 100 µM
  TGI: > 100 µM
[14]
  GI50: > 100 µM
  TGI: > 100 µM
[15]
  GI50: > 100 µM
  TGI: > 100 µM
[16]
  GI50: > 100 µM
  TGI: > 100 µM
[17]
  GI50: > 100 µM
  TGI: > 100 µM
[18]
  GI50: > 100 µM
  TGI: > 100 µM
[19]
  GI50: > 100 µM
  TGI: > 100 µM
[20]
  GI50: > 100 µM
  TGI: > 100 µM
[21]
  GI50: > 100 µM
  TGI: > 100 µM
[22]
  GI50: 56.4 µM
  TGI: > 100 µM
[23]
  GI50: > 100 µM
  TGI: > 100 µM
[24]
  GI50: > 100 µM
  TGI: > 100 µM
[25]
  GI50: > 100 µM
  TGI: > 100 µM
[26]
  GI50: > 100 µM
  TGI: > 100 µM
[27]
  GI50: > 100 µM
  TGI: > 100 µM
[28]
  GI50: > 100 µM
  TGI: > 100 µM
[29]
  GI50: > 100 µM
  TGI: > 100 µM
[30]
  GI50: > 100 µM
  TGI: > 100 µM
[31]
  GI50: > 100 µM
  TGI: > 100 µM
[32]
  GI50: > 100 µM
  TGI: > 100 µM
[33]
  GI50: > 100 µM
  TGI: > 100 µM
[34]
  GI50: > 100 µM
  TGI: > 100 µM
[35]
  GI50: > 100 µM
  TGI: > 100 µM
[36]
  GI50: > 100 µM
  TGI: > 100 µM
[37]
  GI50: > 100 µM
  TGI: > 100 µM
[38]
  GI50: > 100 µM
  TGI: > 100 µM
[39]
  GI50: > 100 µM
  TGI: > 100 µM
[40]
  GI50: > 100 µM
  TGI: > 100 µM
[41]
  GI50: > 100 µM
  TGI: > 100 µM
[42]
  GI50: > 100 µM
  TGI: > 100 µM
[43]
  GI50: > 100 µM
  TGI: > 100 µM
[44]
  GI50: > 100 µM
  TGI: > 100 µM
[45]
  GI50: > 100 µM
  TGI: > 100 µM
[46]
  GI50: > 100 µM
  TGI: > 100 µM
[47]
  GI50: > 100 µM
  TGI: > 100 µM
[48]
  GI50: > 100 µM
  TGI: > 100 µM
[49]
  GI50: > 100 µM
  TGI: > 100 µM
[50]
  GI50: > 100 µM
  TGI: > 100 µM
[51]
  GI50: > 100 µM
  TGI: > 100 µM
[52]
  GI50: > 100 µM
  TGI: > 100 µM
[53]
  GI50: > 100 µM
  TGI: > 100 µM
[54]
  GI50: > 100 µM
  TGI: > 100 µM
[55]
  GI50: > 100 µM
  TGI: > 100 µM
[56]
  GI50: > 100 µM
  TGI: > 100 µM
[57]
  GI50: > 100 µM
  TGI: > 100 µM

## C=C(C)C#CC(O)(C(=O)OC1CCN(C)CC1)C1CCCC1 (stereo unspecified)
[1]
  GI50: 26.5 µM
  TGI: > 100 µM
[2]
  GI50: 59.1 µM
  TGI: > 100 µM
[3]
  GI50: > 100 µM
  TGI: > 100 µM
[4]
  GI50: > 100 µM
  TGI: > 100 µM
[5]
  GI50: > 100 µM
  TGI: > 100 µM
[6]
  GI50: 92 µM
  TGI: > 100 µM
[7]
  GI50: 50.5 µM
  TGI: > 100 µM
[8]
  GI50: > 100 µM
  TGI: > 100 µM
[9]
  GI50: > 100 µM
  TGI: > 100 µM
[10]
  GI50: 57.2 µM
  TGI: > 100 µM
[11]
  GI50: > 100 µM
  TGI: > 100 µM
[12]
  GI50: > 100 µM
  TGI: > 100 µM
[13]
  GI50: > 100 µM
  TGI: > 100 µM
[14]
  GI50: > 100 µM
  TGI: > 100 µM
[58]
  GI50: 82.1 µM
  TGI: > 100 µM
[15]
  GI50: > 100 µM
  TGI: > 100 µM
[16]
  GI50: > 100 µM
  TGI: > 100 µM
[17]
  GI50: > 100 µM
  TGI: > 100 µM
[18]
  GI50: > 100 µM
  TGI: > 100 µM
[19]
  GI50: > 100 µM
  TGI: > 100 µM
[21]
  GI50: 31.2 µM
  TGI: > 100 µM
[23]
  GI50: > 100 µM
  TGI: > 100 µM
[59]
  GI50: > 100 µM
  TGI: > 100 µM
[24]
  GI50: > 100 µM
  TGI: > 100 µM
[26]
  GI50: > 100 µM
  TGI: > 100 µM
[27]
  GI50: > 100 µM
  TGI: > 100 µM
[28]
  GI50: > 100 µM
  TGI: > 100 µM
[29]
  GI50: > 100 µM
  TGI: > 100 µM
[30]
  GI50: > 100 µM
  TGI: > 100 µM
[31]
  GI50: > 100 µM
  TGI: > 100 µM
[32]
  GI50: > 100 µM
  TGI: > 100 µM
[33]
  GI50: > 100 µM
  TGI: > 100 µM
[34]
  GI50: > 100 µM
  TGI: > 100 µM
[36]
  GI50: > 100 µM
  TGI: > 100 µM
[37]
  GI50: > 100 µM
  TGI: > 100 µM
[38]
  GI50: > 100 µM
  TGI: > 100 µM
[39]
  GI50: > 100 µM
  TGI: > 100 µM
[40]
  GI50: > 100 µM
  TGI: > 100 µM
[41]
  GI50: > 100 µM
  TGI: > 100 µM
[42]
  GI50: > 100 µM
  TGI: > 100 µM
[43]
  GI50: > 100 µM
  TGI: > 100 µM
[44]
  GI50: > 100 µM
  TGI: > 100 µM
[45]
  GI50: > 100 µM
  TGI: > 100 µM
[46]
  GI50: > 100 µM
  TGI: > 100 µM
[47]
  GI50: > 100 µM
  TGI: > 100 µM
[48]
  GI50: > 100 µM
  TGI: > 100 µM
[49]
  GI50: > 100 µM
  TGI: > 100 µM
[50]
  GI50: > 100 µM
  TGI: > 100 µM
[51]
  GI50: > 100 µM
  TGI: > 100 µM
[52]
  GI50: 36.4 µM
  TGI: > 100 µM
[60]
  GI50: > 100 µM
  TGI: > 100 µM
[53]
  GI50: 72.8 µM
  TGI: > 100 µM
[54]
  GI50: > 100 µM
  TGI: > 100 µM
[55]
  GI50: > 100 µM
  TGI: > 100 µM
[56]
  GI50: > 100 µM
  TGI: > 100 µM
[57]
  GI50: > 100 µM
  TGI: > 100 µM
